Literature values in patent US20160081975A1, “SOFT GEL COMPOSITIONS AND PRE-GEL CONCENTRATES” (VIRUN, INC., priority 2014, published 2016).

Conditions: low concentrations, in water

For “D-α-tocopheryl polyethylene glycol succinate [TPGS]”, the “Concentration forming a micellar solution” value is listed as 0.04 to 0.06 mmol/L.
